Patent US9546139B2, “Pyridine carboxylic acid based compound used as a P2X1 and P2X3 receptor antagonist, a production method for the same and a composition comprising the same” (GWANGJU INSTITUTE OF SCIENCE AND TECHNOLOGY, priority 2010, dated 2017)
pIC50: −log10 of the molar value.

Amino acid sequences for entries named in this document (tags omitted). A change or cut given only in a name is not applied to a line headed by its entry.
UniProt P51576: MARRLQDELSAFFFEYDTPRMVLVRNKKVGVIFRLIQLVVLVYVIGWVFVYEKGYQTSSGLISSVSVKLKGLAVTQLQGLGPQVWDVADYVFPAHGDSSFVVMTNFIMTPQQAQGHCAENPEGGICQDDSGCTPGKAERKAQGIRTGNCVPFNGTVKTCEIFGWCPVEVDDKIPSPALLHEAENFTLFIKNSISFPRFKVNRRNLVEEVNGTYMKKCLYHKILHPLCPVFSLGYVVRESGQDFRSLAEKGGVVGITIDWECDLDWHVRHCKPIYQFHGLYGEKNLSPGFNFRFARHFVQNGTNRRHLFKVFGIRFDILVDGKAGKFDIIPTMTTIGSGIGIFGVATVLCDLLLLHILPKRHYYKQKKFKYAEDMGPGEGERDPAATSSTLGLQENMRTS
UniProt P56373: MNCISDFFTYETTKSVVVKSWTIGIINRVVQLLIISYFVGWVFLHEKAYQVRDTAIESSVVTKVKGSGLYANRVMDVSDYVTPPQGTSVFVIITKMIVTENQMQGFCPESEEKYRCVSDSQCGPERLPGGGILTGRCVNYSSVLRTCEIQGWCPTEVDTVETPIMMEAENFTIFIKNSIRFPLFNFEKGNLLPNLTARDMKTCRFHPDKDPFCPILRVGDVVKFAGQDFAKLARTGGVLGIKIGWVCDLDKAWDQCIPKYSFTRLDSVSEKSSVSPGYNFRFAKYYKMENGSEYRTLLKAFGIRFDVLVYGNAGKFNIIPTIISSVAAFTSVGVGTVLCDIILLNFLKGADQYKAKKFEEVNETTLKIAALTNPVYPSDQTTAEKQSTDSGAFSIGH
UniProt P51575: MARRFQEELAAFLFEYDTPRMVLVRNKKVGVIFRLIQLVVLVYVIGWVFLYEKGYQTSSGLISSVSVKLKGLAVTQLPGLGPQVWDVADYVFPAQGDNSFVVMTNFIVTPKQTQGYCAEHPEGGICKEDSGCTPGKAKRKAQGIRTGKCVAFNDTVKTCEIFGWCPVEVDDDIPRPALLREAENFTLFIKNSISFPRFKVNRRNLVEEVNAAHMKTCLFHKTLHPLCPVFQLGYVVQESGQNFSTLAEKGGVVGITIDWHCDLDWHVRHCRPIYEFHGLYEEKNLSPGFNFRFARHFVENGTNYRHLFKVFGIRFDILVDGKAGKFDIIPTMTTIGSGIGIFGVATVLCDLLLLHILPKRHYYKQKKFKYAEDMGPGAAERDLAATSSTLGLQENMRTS

Assays:
mouse P2X1 receptor = mouse P2X1 receptor (Mus musculus, UniProt P51576); assay: Two-electrode voltage clamp, ATP-induced ion current in Xenopus oocytes expressing mouse P2X1; format: cell-based; details: Table 1; 10 μM compound; ion current induced by 2 μM ATP; mean ± SEM, n = 4
Procedure: 1-1. Antagonistic Activity at Recombinant Mouse P2X1 and Human P2X3 Receptors
Xenopus oocytes were harvested and prepared with method as previously described in publications. Defolliculated oocytes were injected cytosolically with mouse P2X1 and human P2X3 receptor cRNA ([…], 1 μg/mL), respectively, incubated for 24 hrs at 18° C. in Barth's solution and kept for up to 12 days at 4° C. until used in electrophysiological experiments. ATP-activated membrane currents (Vh=−70 mV) were recorded from cRNA-injected oocytes using the twin-electrode voltage-clamp technique (Axoclamp 2B amplifier). Voltage recording (1-2 MΩ tip resistance) and current-recording microelectrodes (5 MΩ tip resistance) were filled with 3.0 M KCl. Oocytes were held in an electrophysiological chamber and superfused with Ringer's solution (5 mL/min, at 18° C.) containing (mM) NaCl, 110; KCl, 2.5; HEPES, 5; BaCl2, 1.8, adjusted to pH 7.5. ATP was superfused over the oocytes for 60-120s then washed out for a period of 20 min. For inhibition curves, data were normalized to the current evoked by ATP, at pH 7.5. Test substances were added for 20 min prior to ATP exposure; all peptides were tested for reversibility of their effects. […]

human P2X3 receptor = human P2X3 receptor (Homo sapiens, UniProt P56373); assay: Two-electrode voltage clamp, ATP-induced ion current in Xenopus oocytes expressing human P2X3; format: cell-based; details: Table 1; 10 μM compound; ion current induced by 2 μM ATP; mean ± SEM, n = 4
[1] = target: recombinant P2X1 receptor (Homo sapiens, UniProt P51575); details: well-known antagonist to agonist-induced cation influx; cited from earlier work

pyridoxal-5-phosphate
% inhibition mP2X1 (mouse P2X1 receptor): 13.2 ± 3.1%
% inhibition hP2X3 (human P2X3 receptor): 20.1 ± 4.2%
pIC50 [1]: 5.00
